These are literature values, as cited in US9670133B2, “Mixtures of cannabinoid compounds, and production and use thereof” (priority 2013, dated 2017).

The data set concerns the target CB2 receptors. The following applies: literature (Pertwee et al. 2010); read-out: Affinity for CB2; cited from earlier work.

The structures appear in SMILES notation.

`C=C(C)[C@@H]1CCC(C)=C[C@H]1c1c(O)cc(CCCCC)cc1O` [CBD, 2-[1R-3-methyl-6-(1-methylethenyl)-2-cyclohexene-1-yl]-5-pentyl-1,3-benzenediol]: the Ki was not below 2.4 µM.
